Values quoted from earlier work, collected in patent US20060135612A1, “Method of ameliorating or abrogating the effects of a neurodegenerative disorder, such as amyotrophic lateral sclerosis (ALS), by using a HDAC inhibiting agent” (U.S. Department of Veterans Affairs, priority 2004, published 2006).

Tested on: humans with ALS
Conditions: ALS patients, References 2 and 3; cited from earlier work

Nc1nc2ccc(OC(F)(F)F)cc2s1 [riluzole]
prolongation of survival: 2-3 month
